In patent US5118392A, “Separation of trichloroethylene from a butyl alcohol by extractive distillation” (priority 1991, dated 1992):

Key:
[1] = Vapor-liquid equilibrium still, t-butanol-trichloroethylene azeotrope with extractive distillation agent; assay type: physicochemical; details: trichloroethylene from t-butanol, Table 10
Description: The data in Tables 2, 3, 5, 7, 8, 10 and 11 was obtained in a vapor-liquid equilibrium still. In every case, the starting mixture was the trichloroethylene-butanol azeotrope. The relative volatilities are listed for each of the agents.
Seventy grams of the t-butanol-trichloroethylene azeotrope and 30 grams of n-butyl acetate were charged to the vapor-liquid equilibrium still and refluxed for fourteen hours.

[2] = Vapor-liquid equilibrium still, trichloroethylene-n-butanol azeotrope with extractive distillation agent; assay type: physicochemical; details: trichloroethylene from n-butanol, Table 2

## 3-Ethoxy propionate
[1]
  Relative Volatility: 1.5

## Methyl amyl alcohol
[2]
  Relative Volatility: 1.7
